{
  "source": "PubChem BioAssay AID1811",
  "about": "(Shanghai Institute of Organic Chemistry, 2009)",
  "origin": "cited, not measured here",
  "test_system": "collagenase 3 (mmp-13)",
  "assay": "PubChem AID 1811",
  "details": "PDB complex binding affinities from literature",
  "note": "This is one part of the list. Active and inactive are the calls of the source. Where no limit is named, active and inactive come without a cut-off here.",
  "data": [
    {"smiles": "CCOCCC1(Oc2ccc(Oc3ccc(F)cc3)cc2)C(=O)NC(=O)NC1=O", "values": [
      {"measurement": "outcome", "value": "active"}
    ]}
  ]
}
